# Patent US4749694A, “Novel lysine esters used as absorption” (Merck & Co., Inc., priority 1984, dated 1988)
# Experiment: Absorption of No. 363,586 with or without alcohol-lysine esters in rats, percent bioavailability versus intravenous (Example 7)
# Conditions: 0.1 mg No. 363,586 ± 5.0 mg alcohol-lysine ester, 250 μl, pH 6, versus intravenous
substance,measurement,setting,value
"cyclo-(N-Ala-Tyr-D-Trp-Lys-Val-Phe)acetate [No. 363,586]","Percent No. 363,586 Bioavailability (mean ± SE), Duodenal",duodenal,1%
same,"Percent No. 363,586 Bioavailability (mean ± SE), Rectal",rectal,7 ± 3.5%
